{"sequences": {"note": "Protein sequences, listed by entry. Tags and fused reporters are not part of them.", "UniProt P33535, whole entry": "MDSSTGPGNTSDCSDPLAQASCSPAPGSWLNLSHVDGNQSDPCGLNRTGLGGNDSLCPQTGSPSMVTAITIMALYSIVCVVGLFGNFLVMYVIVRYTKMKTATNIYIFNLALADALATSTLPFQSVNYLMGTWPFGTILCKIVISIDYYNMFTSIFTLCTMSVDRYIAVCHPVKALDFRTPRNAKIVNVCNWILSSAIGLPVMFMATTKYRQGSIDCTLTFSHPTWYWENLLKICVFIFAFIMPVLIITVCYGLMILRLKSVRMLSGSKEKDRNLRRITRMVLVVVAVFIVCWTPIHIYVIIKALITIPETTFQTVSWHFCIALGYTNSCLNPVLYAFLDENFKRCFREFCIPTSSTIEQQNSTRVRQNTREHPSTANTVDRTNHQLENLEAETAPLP"}, "source": "patent US20170217976A1", "about": "“6-(AMINO ACID)-MORPHINAN DERIVATIVES IN COMBINATION WITH PERMEATION […] FOR USE AS AN ORALLY, […], TRA[…] NASALLY AD[…]” (C[…], priority 2014, published 2017)", "key": {"KOR": {"molecular_target": "T1, KOR (Cavia porcellus, UniProt P41144)", "T1 construct": "from tissue", "experiment": "Opioid receptor binding, KOR, guinea pig brain membranes", "settings": "in vitro binding assay"}, "MOR": {"molecular_target": "T2, MOR (Rattus norvegicus, UniProt P33535)", "T2 construct": "from tissue", "experiment": "Opioid receptor binding, MOR, rat brain membranes", "settings": "Table 1-4, rat brain membranes"}}, "data": [{"smiles": "CCO.CO[C@@]12CC[C@@H](NCC(=O)O)[C@@H]3Oc4c(O)ccc5c4[C@@]31CCN(C)[C@@H]2C5.Cl.Cl.O", "note": "[HS731, 2-[(4,5α-EPOXY-3-HYDROXY-14β-METHOXY-17-METHYLMORPHINAN-6β-YL)AMINO]ACETIC ACID DIHYDROCHLORIDE HYDRATE ETHANOLATE]", "values": [{"measurement": "Ki", "setting": "KOR", "result": 44.8, "unit": "nM"}]}, {"smiles": "CO[C@@]12CC[C@H](NCC(=O)O)[C@@H]3Oc4c(O)ccc5c4[C@@]31CCN(C)[C@@H]2C5", "note": "[HS730]", "values": [{"measurement": "Ki", "setting": "MOR", "result": 0.89, "unit": "nM"}, {"measurement": "Ki", "setting": "KOR", "result": 43.2, "unit": "nM"}]}]}
